Data published in patent US8067603B2 (priority 2003, dated 2011).

The chains behind the UniProt entries cited, without tags or fusion partners.
UniProt P41146, whole entry: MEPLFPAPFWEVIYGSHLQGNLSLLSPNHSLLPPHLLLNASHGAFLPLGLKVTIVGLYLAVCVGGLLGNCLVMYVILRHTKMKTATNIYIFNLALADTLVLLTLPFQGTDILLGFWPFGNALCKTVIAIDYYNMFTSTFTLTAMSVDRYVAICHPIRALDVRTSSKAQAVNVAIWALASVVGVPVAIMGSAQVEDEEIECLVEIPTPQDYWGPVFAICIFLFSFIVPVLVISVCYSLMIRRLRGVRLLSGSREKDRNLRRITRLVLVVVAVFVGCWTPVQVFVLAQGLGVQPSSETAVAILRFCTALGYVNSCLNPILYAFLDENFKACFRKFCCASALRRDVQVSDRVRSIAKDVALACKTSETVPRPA
UniProt P35372, whole entry: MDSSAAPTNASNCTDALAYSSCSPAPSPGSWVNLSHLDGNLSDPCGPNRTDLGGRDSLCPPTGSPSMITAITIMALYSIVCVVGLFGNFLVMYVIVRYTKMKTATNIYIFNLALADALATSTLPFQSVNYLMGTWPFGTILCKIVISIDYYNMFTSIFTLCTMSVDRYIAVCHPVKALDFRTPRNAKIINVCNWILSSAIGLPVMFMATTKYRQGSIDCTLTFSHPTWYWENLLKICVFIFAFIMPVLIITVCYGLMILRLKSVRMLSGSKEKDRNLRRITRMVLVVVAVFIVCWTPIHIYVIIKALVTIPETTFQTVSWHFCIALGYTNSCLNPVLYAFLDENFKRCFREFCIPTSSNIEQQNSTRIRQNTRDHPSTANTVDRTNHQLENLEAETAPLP

How the values were obtained:
[1] = target: human ORL1 receptor (Homo sapiens, UniProt P41146); assay: Affinity for human ORL1 receptors, [3H]-nociceptin binding, CHO-cell membranes; conditions: membranes of CHO-cells expressing human ORL1
Protocol: Affinity of the compounds for human ORL1 receptors was determined using the in vitro receptor binding assay described by Ardati et al., Mol. Pharmacol., 51, 816, 1997. Briefly, membrane preparations were obtained from CHO-cells in which the human ORL1 receptor was stably expressed. Membranes were incubated with [^3H]-nociceptin in the absence or presence of test compound in different concentrations, diluted in a suitable buffer. Non specific binding was defined as binding remaining in the presence of 10^−6 M nociceptin. Separation of bound radioactivity from free was done by filtration through Packard GF/B glass fiber filters with several washings with ice-cold buffer using a Packard cell harvester. Bound radioactivity was measured with a scintillation counter (Topcount, Packard) using a liquid scintillation cocktail (Microscint 0, Packard). Measured radioactivity was plotted against the concentration of the displacing test compound and displacement curves were calculated by four-parameter logistic regression, resulting in IC50 values, i.e. that concentration of test compound by which 50% of the radioligand is displaced.

[2] = target: human μ-opiate receptor (Homo sapiens, UniProt P35372); assay: Affinity for human μ-opiate receptors, [3H]-naloxone binding, CHO-cell membranes; conditions: membranes of CHO-cells expressing human μ-opiate receptor
Protocol: Affinity of the compounds for μ-opiate receptors was determined using the in vitro receptor binding assay described by Childers et al, Eur. J. Pharm 55, 11, 1979. Briefly, membrane preparations were obtained from CHO-cells in which the human μ-opiate receptor was stably expressed, and were incubated with the [^3H]-naloxone in the absence or presence of test-compounds in a concentration range from 10 μM down to 0.1 nM, diluted in a suitable buffer. Non specific binding was defined as binding remaining in the presence of 10^−7 M levallorphan tartrate.

| SMILES | affinity ORL1 pKi [1] | affinity μ-opi pKi [2] |
| --- | --- | --- |
| O=c1[nH]c2ccccc2n1C1CCN(C2CCC3CCCc4ccc(F)c2c43)CC1 (stereo not drawn) | 8.4 | 7.5 |
| O=c1[nH]c2ccccc2n1C1CCN(C2CCC3CCCc4cc(F)cc2c43)CC1 (stereo not drawn) | 7.9 | 6.9 |
| Cc1ccc2c3c1CCCC3CCC2N1CCC(n2c(=O)[nH]c3ccccc32)CC1 (stereo not drawn) | 9.2 | 8.1 |
